Some targets named below: DRB5*0101 (Homo sapiens, UniProt P01903+Q30154); DRB1*0401 (Homo sapiens, UniProt P01903+P01911, A100K/A169T/F76Y/I96L/K127E/L162R/M171V/N62H/P40V/Q125Y/R42H/S133A/S149N/S66Y/V115G/V209L/W38E); DRB1*0405 (Homo sapiens, UniProt P01903+P01911, A100R/A169T/D86S/F76Y/I96L/K127E/L162R/M171V/N62H/P40V/Q125Y/R42H/S133A/S149N/S66Y/V115G/V209L/W38E); DRB1*1101 (Homo sapiens, UniProt P01903+P01911, A100R/A169T/A87E/I96F/K41T/L162R/M171V/P40S/Q125H/Q178H/Q39Y/Q99D/R42S/S66Y/T262R/V115G/W38E); DRB1*0701 (Homo sapiens, UniProt P01903+P01911, A100R/A102G/A103Q/D57E/D86V/E43K/F76Y/K127E/L162R/M171V/P40G/Q125H/Q99D/R33Q/R42Y/R54Q/S133A/S66F/T210M/V115G/Y107V/Y59L/Y89S); DRB1*0901 (Homo sapiens, UniProt P01903+P01911, A100R/A103E/D57H/D86V/F55Y/F60I/F76Y/I96F/K127E/L162R/M171V/P40D/Q125H/Q99R/R33Q/R42F/S133A/S66N/T210M/V115G/W38K/Y107V/Y59G/Y89S); DRB1*1501 (Homo sapiens, UniProt P01903+P01911); DRB1*0301 (Homo sapiens, UniProt P01903+P01911, A100K/A102G/A103R/A169T/F55Y/I96L/K41T/L162R/M171V/P40S/Q125H/Q178H/Q39Y/R42S/S66N/T106N/T262R/W38E/Y61H); DRB1*1302 (Homo sapiens, UniProt P01903+P01911, A100E/A169T/K41T/L162R/M171V/P40S/Q125H/Q178H/Q39Y/Q99D/R42S/S66N/T262R/V115G/W38E/Y61H); DRB1*0802 (Homo sapiens, UniProt P01903+P01911, A100R/A103L/A169T/F76Y/H45Y/I96F/K41T/L162R/M171V/P40S/Q125H/Q178H/Q39Y/Q99D/R218S/R42G/S66Y/V115G/W38E); DRB1*0101 (Homo sapiens, UniProt P01903+P01911, A100R/D57E/F55L/F60I/F76Y/I96L/L162R/M171V/P40L/Q125E/R42F/V115G/Y59C); DRB1*0404 (Homo sapiens, UniProt P01903+P01911, A100R/A169T/F76Y/I96L/K127E/L162R/M171V/N62H/P40V/Q125Y/R42H/S133A/S149N/S66Y/V209L/W38E).

By UniProt entry, the sequences of proteins in these tests, tags left out. Residues count along the entry.
UniProt Q30154, 30-266: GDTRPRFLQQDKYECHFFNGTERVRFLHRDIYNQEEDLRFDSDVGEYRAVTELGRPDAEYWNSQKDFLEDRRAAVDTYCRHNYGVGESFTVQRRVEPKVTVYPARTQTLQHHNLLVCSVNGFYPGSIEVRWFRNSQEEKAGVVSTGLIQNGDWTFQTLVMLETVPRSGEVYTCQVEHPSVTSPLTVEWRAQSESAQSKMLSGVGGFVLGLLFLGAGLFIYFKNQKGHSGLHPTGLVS

Test in all cases: biochemical
What all share (format): binding

A further test deals with DRB4*0101 (Homo sapiens, UniProt P01903+P13762, G164S). To be noted: read-out: Binding Affinity (nM) DRB4*0101.
Setting [1] is: read-out: Binding Affinity (nM) DRB5*0101.
[2] abbreviates: read-out: Binding Affinity (nM) DRB1*0401.
[3] abbreviates: read-out: Binding Affinity (nM) DRB1*0405.

Read-outs that look alike come from different tables or passages of the source. Bounds are passed on as bounds.

Take `C[C@@H](O)[C@H](NC(=O)[C@H](CO)NC(=O)[C@H](CO)NC(=O)[C@H](Cc1c[nH]cn1)NC(=O)[C@H](CCC(=O)O)NC(=O)[C@H](CCC(=O)O)NC(=O)[C@@H](N)CCCCN)C(=O)N[C@@H](Cc1c[nH]c2ccccc12)C(=O)N[C@@H](Cc1c[nH]cn1)C(=O)N[C@@H](Cc1ccc(O)cc1)C(=O)N[C@@H](CC(=O)O)C(=O)N[C@@H](CC(=O)O)C(=O)N[C@@H](CCC(=O)O)C(=O)N[C@@H](CC(N)=O)C(=O)N1CCC[C@H]1C(=O)N[C@@H](Cc1ccc(O)cc1)C(=O)N[C@@H](CCCCN)C(=O)O` [NS5 284-300]: at DRB5*0101 (setting [1]), the IC50 was greater than 20000 nM.

`CC(C)C[C@H](NC(=O)[C@H](CCC(=O)O)NC(=O)[C@H](CC(C)C)NC(=O)[C@H](CCCCN)NC(=O)CNC(=O)[C@H](CC(C)C)NC(=O)[C@H](Cc1c[nH]cn1)NC(=O)[C@H](Cc1c[nH]c2ccccc12)NC(=O)[C@@H]1CCCN1C(=O)CNC(=O)[C@H](C)NC(=O)[C@@H](NC(=O)[C@H](CCC(N)=O)NC(=O)[C@@H](NC(=O)[C@@H](N)Cc1c[nH]cn1)[C@@H](C)O)[C@@H](C)O)C(=O)O` [NS1 261-275]: the IC50 at DRB1*0401 (setting [2]) was greater than 20000 nM; at DRB1*0405, 18700 nM; against DRB1*1101, 7.45 µM; against DRB5*0101 it was 14500 nM; against DRB1*0701, 7.94 µM; at DRB1*0901, 5830 nM. This molecule also returned an IC50 on DRB1*1501 of 5.92 µM.

`C[C@H](NC(=O)[C@H](Cc1c[nH]c2ccccc12)NC(=O)[C@@H](NC(=O)[C@H](CCCCN)NC(=O)[C@H](Cc1ccc(O)cc1)NC(=O)[C@@H]1CCCN1C(=O)[C@H](CC(N)=O)NC(=O)[C@H](CCC(=O)O)NC(=O)[C@H](CC(=O)O)NC(=O)[C@H](CC(=O)O)NC(=O)[C@H](Cc1ccc(O)cc1)NC(=O)[C@H](Cc1c[nH]cn1)NC(=O)[C@H](Cc1c[nH]c2ccccc12)NC(=O)[C@@H](N)[C@@H](C)O)[C@@H](C)O)C(=O)N[C@@H](Cc1ccc(O)cc1)C(=O)N[C@@H](Cc1c[nH]cn1)C(=O)NCC(=O)O` [NS5 290-306]: the IC50 at DRB1*0405 (setting [3]) is greater than 20000 nM; against DRB1*0301 it was 0.027 µM; on DRB1*1101 it was 3.9 µM; at DRB5*0101 (setting [1]), greater than 20000 nM; against DRB1*1302, 2900 nM; against DRB1*0802, 1.39 µM. The IC50 was 2.7 µM against DRB1*0701; 0.299 µM against DRB1*0101; 2990 nM on DRB1*0901; 16200 nM at DRB1*0404; 4.91 µM against DRB1*1501.

As to `CC[C@H](C)[C@H](NC(=O)[C@H](Cc1c[nH]c2ccccc12)NC(=O)[C@H](CCC(=O)O)NC(=O)[C@H](CC(N)=O)NC(=O)CNC(=O)[C@H](CO)NC(=O)[C@H](CC(N)=O)NC(=O)[C@@H](N)Cc1c[nH]c2ccccc12)C(=O)N[C@H](C(=O)N[C@@H](CC(=O)O)C(=O)N[C@@H](Cc1ccccc1)C(=O)N[C@@H](C)C(=O)NCC(=O)N[C@@H](CCCCN)C(=O)N[C@H](C(=O)O)[C@@H](C)O)[C@@H](C)O` [NS3 345-359], the IC50 is 5340 nM against DRB1*0405; 2.62 µM against DRB1*0301; 10.1 µM on DRB1*1101; greater than 20000 nM on DRB5*0101 (setting [1]); 8.13 µM against DRB1*0701; 1.76 µM against DRB1*0101. The IC50 was 10900 nM on DRB1*0901 and 5.32 µM on DRB1*1501.

On to `CC[C@H](C)[C@H](NC(=O)[C@H](C)NC(=O)[C@H](CCC(=O)O)NC(=O)[C@H](CCCNC(=N)N)NC(=O)[C@@H](N)C(C)C)C(=O)N[C@@H](CCCCN)C(=O)N[C@@H](CCCNC(=N)N)C(=O)N[C@@H](CCCNC(=N)N)C(=O)N[C@@H](CC(C)C)C(=O)N[C@@H](CCCNC(=N)N)C(=O)N[C@H](C(=O)N[C@@H](CC(C)C)C(=O)N[C@H](C(=O)N[C@@H](CC(C)C)C(=O)N[C@@H](C)C(=O)O)[C@@H](C)CC)[C@@H](C)O` [NS3 209-223], for which the IC50 was found to be 12.8 µM on DRB1*0301; 1640 nM against DRB5*0101; 3280 nM at DRB1*1302; 12.4 µM on DRB1*0802; 1.86 µM against DRB1*0701; 4.21 µM against DRB1*0101. The IC50 against DRB1*0901 amounted to 7310 nM; against DRB1*0404 it was 2540 nM.

Consider `CC(C)C[C@H](NC(=O)[C@@H](NC(=O)CNC(=O)[C@H](CC(N)=O)NC(=O)[C@H](CO)NC(=O)[C@H](Cc1c[nH]c2ccccc12)NC(=O)[C@H](CC(C)C)NC(=O)[C@@H](NC(=O)[C@H](Cc1c[nH]cn1)NC(=O)[C@H](CO)NC(=O)[C@H](CCCCN)NC(=O)[C@@H]1CCCN1C(=O)[C@@H](N)Cc1c[nH]c2ccccc12)[C@@H](C)O)C(C)C)C(=O)N[C@@H](CCC(=O)O)C(=O)N[C@@H](CO)C(=O)O` [NS1 225-239], for which the IC50 on DRB5*0101 (setting [1]) was greater than 20000 nM.

Take `CC[C@H](C)[C@H](NC(=O)CNC(=O)[C@H](CO)NC(=O)CNC(=O)[C@H](CS)NC(=O)[C@H](CCCCN)NC(=O)[C@H](CC(C)C)NC(=O)[C@H](CCC(=O)O)NC(=O)[C@H](CCCCN)NC(=O)CNC(=O)[C@H](CCCCN)NC(=O)[C@H](Cc1c[nH]c2ccccc12)NC(=O)[C@H](CC(N)=O)NC(=O)[C@@H](NC(=O)[C@@H](N)C(C)C)[C@@H](C)CC)C(=O)O` [NS1 5-19]: the IC50 on DRB1*0401 (setting [2]) was greater than 20000 nM; on DRB1*0405 (setting [3]), greater than 20000 nM; against DRB1*0301 it was 14 µM; against DRB1*1101 it was 13.2 µM; on DRB1*1302 (read-out: Binding Affinity (nM) DRB1*1302), greater than 20000 nM; at DRB1*0802 it was 14.9 µM. Further, the IC50 at DRB4*0101 is greater than 20000 nM; on DRB1*0701 it was 10.2 µM; at DRB1*0101, 12.7 µM; at DRB1*0901 it was 18100 nM; on DRB1*0404 (read-out: Binding Affinity (nM) DRB1*0404) it was greater than 20000 nM; against DRB1*1501, 1.12 µM.

`CC(C)C[C@H](NC(=O)CNC(=O)[C@H](CCC(=O)O)NC(=O)CNC(=O)[C@H](CCC(=O)O)NC(=O)[C@@H](NC(=O)CNC(=O)[C@H](CO)NC(=O)[C@H](Cc1ccc(O)cc1)NC(=O)[C@H](CO)NC(=O)[C@H](CC(N)=O)NC(=O)[C@H](CCC(=O)O)NC(=O)[C@H](CCCNC(=N)N)NC(=O)[C@H](CO)NC(=O)[C@H](Cc1ccccc1)NC(=O)[C@H](Cc1c[nH]c2ccccc12)NC(=O)[C@@H](N)Cc1c[nH]cn1)C(C)C)C(=O)O` [NS5 495-511]: the IC50 against DRB1*0401 was 15 nM; against DRB1*0405, 1750 nM; on DRB1*0301, 5.78 µM; at DRB1*1101 it was 11.1 µM; at DRB1*1302 (competitive inhibition of radiolabeled standard peptide, DRB1*1302, read-out: Binding Affinity (nM) DRB1*1302), greater than 20000 nM; at DRB1*0802, 5.4 µM. Moreover, the IC50 was greater than 20000 nM at DRB4*0101; 0.19 µM at DRB1*0701; 0.121 µM against DRB1*0101; 448 nM on DRB1*0901 (competitive inhibition of radiolabeled standard peptide, DRB1*0901, read-out: Binding Affinity (nM) DRB1*0901); 1050 nM against DRB1*0404; 5.56 µM at DRB1*1501.
